Results published in article PMC7765948, “Spadin Modulates Astrocytic Passive Conductance via Inhibition of TWIK-1/TREK-1 Heterodimeric Channels” (International Journal of Molecular Sciences, 2020).

Experiments:
TWIK-1(K274E) = experiment: Whole-cell currents in COS-7 cells expressing TWIK-1(K274E); type: cell-based, mouse; conditions: −150 mV, 10 µM spadin
Method: cDNAs encoding for full-length mouse TREK-1 (GenBank accession no. NM_010607) and mouse TWIK-1 (NM_008430) were obtained by using an RT–PCR based gateway cloning (ThermoFisher, Waltham, MA, USA). TWIK-1 K274E mutant was generated using full-length cDNA as templates via the EZchange site-directed mutagenesis kit (Enzynomics, Daejeon, Korea). All constructs were cloned into pDEST-IRES2-GFP vectors by gateway cloning. […]
Current–voltage (I–V) curves were recorded from COS-7 cells expressing TWIK-1 K274E, TREK-1 or concatenated TWIK-1-TREK-1-IRES2-GFP. […] The I–V relations were measured by applying 1-s ramp pulses (from −150 mV to +50 mV) from a holding potential of −60 mV. […] Currents were analyzed with Clampfit software (Axon instruments, Union City, CA, USA). […]
All data are presented as means ± standard error of the mean (s.e.m). The significance of data for comparison was assessed by Student’s t-test (paired t-test) or one-way ANOVA followed by Turkey’s post hoc test, and significance levels are given as: n.s: not significant, * p < 0.05, ** p < 0.01, *** p < 0.001, and **** p < 0.0001. […]

mouse TREK-1 = tested on: mouse TREK-1; design: method as in PMID 20405001, PMID 22022421, PMID 32317978; conditions: low concentrations; cited from earlier work
[1] = tested on: TREK-1 in hippocampal pyramidal neurons in TREK-1 KO mice; conditions: cited from earlier work
From the text: Based on our results and other reports regarding the inhibitory effects of spadin on TREK-1 homodimeric and TREK-1 ...

SMILES: CC[C@H](C)[C@H](NC(=O)[C@@H]1CCCN1C(=O)CNC(=O)[C@H](CO)NC(=O)[C@H](Cc1c[nH]c2ccccc12)NC(=O)[C@H](CCCNC(=N)N)NC(=O)[C@@H]1CCCN1C(=O)[C@H](CC(C)C)NC(=O)[C@@H]1CCCN1C(=O)[C@H](C)NC(=O)[C@@H](N)Cc1ccc(O)cc1)C(=O)NCC(=O)N[C@H](C(=O)N[C@@H](CO)C(=O)N[C@@H](Cc1c[nH]c2ccccc12)C(=O)NCC(=O)N[C@@H](CC(C)C)C(=O)N[C@@H](CCCNC(=N)N)C(=O)O)C(C)C [spadin]
- TWIK-1(K274E)-mediated currents with spadin (TWIK-1(K274E)): not affected
- inhibition of mouse TREK-1 (mouse TREK-1): inhibited by spadin at low concentrations
- inhibitory effect on TREK-1 in hippocampal pyramidal neurons [1]: inhibitory effects of spadin on TREK-1 were confirmed
